Results from publication PMC3852207.

Biological target: GST-p50 RhoGAP
Experiment: scintillation proximity assay (direct); GST-p50 RhoGAP on SPA beads; [3H]GTP·Cdc42 or [3H]GTP·Rac1 in solution; values used as fixed Kd in the competition fits

Kd: 86 nM
Substance: Q61L Rac1·[3H]GTP (from UniProt P63000 1-192) (natural protein)
